The values that follow come from PMC5908301, “Small molecule CXCR4 antagonists block the HIV-1 Nef/CXCR4 axis and selectively initiate the apoptotic program in breast cancer cells” (Oncotarget, 2018).

Protein sequences, listed by entry. Tags and fused reporters are not part of them.
UniProt P61073, whole entry: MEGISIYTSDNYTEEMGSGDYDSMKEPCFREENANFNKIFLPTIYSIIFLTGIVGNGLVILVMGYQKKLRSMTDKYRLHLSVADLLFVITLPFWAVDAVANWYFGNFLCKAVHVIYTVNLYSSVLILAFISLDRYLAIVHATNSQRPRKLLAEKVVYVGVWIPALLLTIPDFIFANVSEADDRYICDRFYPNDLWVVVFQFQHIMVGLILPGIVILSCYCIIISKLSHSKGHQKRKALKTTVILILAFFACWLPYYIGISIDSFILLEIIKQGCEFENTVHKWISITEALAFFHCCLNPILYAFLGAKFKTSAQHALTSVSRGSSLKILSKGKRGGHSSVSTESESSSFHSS

pEC50, pIC50: −log10 of the molar value.

One experiment concerns MDA-MB-231 cells. Put plainly: Mitochondrial depolarization of MDA-MB-231 breast cancer cells (JC-1 stain).
For a further experiment, the target named is CXCR4 (Homo sapiens, UniProt P61073). The experiment can be described thus: Inhibition of SDF-1α-mediated calcium flux in CXCR4-expressing CEM cells. The class given is cell-based. Also noted: CXCR4-expressing CEM cells; endogenous in cells; host or cells: CEM cells. Conditions: 5 nM recombinant human SDF-1α; read-out: CEM SDF-1 Ca2+ Flux IC50.
The next experiment deals with HIV-1IIIB. Put plainly: MAGI antiviral (entry) assay with HIV-1IIIB in HeLa-derived MAGI-CCR5/CXCR4 cells. The class given is cell-based. The conditions noted are these: Human immunodeficiency virus 1, MAGI, read-out: HeLa HIV-1IIIB MAGI IC50.

As usually defined, the pEC50 is −log10 of the EC50, conventionally taken in molar units. The pIC50 is the IC50 on a negative log10 scale, so that one unit is a factor of ten. Turning to `c1ccc(CNCCCCN(C[C@H]2Cc3ccccc3CN2)[C@H]2CCCc3cccnc32)nc1` [Compound 2], the “Depolarization (%)” value in the experiment on MDA-MB-231 cells (Figure 8A, JC-1 staining) stood at 95%. Moreover, the pEC50 with MDA-MB-231 cells (Homo sapiens, MDA-MB-231, 24 h, read-out: MDA-MB-231 Depolarization EC50) was 9.43. Also, the pIC50 on CXCR4 is 9.00; in the experiment with HIV-1IIIB, 6.92.
